Measured values from US11236106B2, “Cycloalkane-1,3-diamine derivative” (Daiichi Sankyo Company, Limited, priority 2018, dated 2022).
Structures can show the parent of a compound that is named as a salt. Where two headings read alike, the source gives them in different places.

Tests used:
Assay in all cases: cells
Conditions in all cases: Homo sapiens
[1] = test system: MV-4-11 cells
[2] = test system: K562 cells
[3] = test system: MOLM-13 cells
[4] = MV4-11, 72 h, read-out: GI50 (μM) Day3 MV4;11, MV4;11, Day3
[5] = MV4-11, 168 h, read-out: GI50 (μM) Day7 MV4;11, MV4;11, Day7
[6] = K562, 72 h, read-out: GI50 (μM) Day3 K562
[7] = K562, 168 h, read-out: GI50 (μM) Day7 K562
[8] = MOLM-13, 72 h, read-out: GI50 (μM) Day3 MOLM-13, MOLM-13, Day3
[9] = MOLM-13, 168 h, read-out: GI50 (μM) Day7 MOLM-13, MOLM-13, Day7

Compound | GI50 [1, 4] [µM] | GI50 [1, 5] [µM] | GI50 [2, 6] [µM] | GI50 [2, 7] [µM] | GI50 [3, 8] [µM] | GI50 [3, 9] [µM]
CNc1nc(N(C)[C@H]2C[C@@H](NCc3ccc(-c4cnc(OC)c(OC)c4)cc3)C[C@@H]2OC)c2cc(CC(F)(F)F)sc2n1 [Example 24, N^4-[(1S,2S,4R)-4-({[4-(5,6-dimethoxypyridin-3-yl)phenyl]methyl}amino)-2-methoxycyclopentyl]-N^2,N^4-dimethyl-6-(2,2,2-trifluoroethyl)thieno[2,3-d]pyrimidine-2,4-diamine Hydrochloride] | 0.0609 | 0.0302 | 3.23 | 2.57 | 0.873 | 0.104
CC(=O)Nc1ccc(CN[C@H]2CCC[C@@H](Nc3ncnc4sc(CC(F)(F)F)cc34)C2)cc1 [Example 29, N-[4-({[(1S,3R)-3-{[6-(2,2,2-trifluoroethyl)thieno[2,3-d]pyrimidin-4-yl]amino}cyclohexyl]amino}methyl)phenyl]acetamide hydrochloride] | 1.26 | 1.07 | > 10 | 7.77 | – | 1.66
C=CS(=O)(=O)NCCCNC(=O)c1ccc(CN[C@H]2CC[C@@H](N(C)c3ncnc4sc(CC(F)(F)F)cc34)C2)cc1 [Example 34, N-{-3-[(ethenesulfonyl)amino]propyl}-4-({[(1S,3R)-3-{methyl[6-(2,2,2-trifluoroethyl)thieno[2,3-d]pyrimidin-4-yl]amino}cyclopentyl]amino}methyl)benzamide hydrochloride] | 0.42 | 0.106 | 4.49 | 2.77 | 0.718 | 0.444
FC(F)(F)Cc1cc2c(N[C@@H]3CCC[C@H](NCc4ccc(-c5ncco5)cc4)C3)ncnc2s1 [Example 35, (1S,3R)-N^1-{[4-(1,3-oxazol-2-yl)phenyl]methyl}-N^3-[6-(2,2,2-trifluoroethyl)thieno[2,3-d]pyrimidin-4-yl]cyclohexane-1,3-diamine hydrochloride] | 4.34 | – | 6.97 | – | 5.72 | –
CN(c1ncnc2sc(CC(F)(F)F)cc12)[C@@H]1CC[C@H](NCc2cncs2)C1 [Example 36, (1R,3S)-N^1-methyl-N^3-[(1,3-thiazol-5-yl)methyl]-N^1-[6-(2,2,2-trifluoroethyl)thieno[2,3-d]pyrimidin-4-yl]cyclopentane-1,3-diamine hydrochloride] | 3.13 | – | > 10 | – | 3.14 | –
FC(F)(F)Cc1cc2c(N[C@@H]3CCC[C@H](NCc4ccc(-c5nnc[nH]5)cc4)C3)ncnc2s1 [Example 37, (1S,3R)-N^1-{[4-(4H-1,2,4-triazol-3-yl)phenyl]methyl}-N^3-[6-(2,2,2-trifluoroethyl)thieno[2,3-d]pyrimidin-4-yl]cyclohexane-1,3-diamine hydrochloride] | 5.21 | – | > 10 | – | 7.21 | –
O=C1CCCN1Cc1ccc(CN[C@H]2CCC[C@@H](Nc3ncnc4sc(CC(F)(F)F)cc34)C2)cc1 [Example 38, 1-{[4-({[(1S,3R)-3-{[6-(2,2,2-trifluoroethyl)thieno[2,3-d]pyrimidin-4-yl[amino}cyclohexy]amino}methyl)phenyl]methyl}pyrrolidin-2-one hydrochloride] | 6.09 | – | > 10 | – | > 10 | –
FC(F)(F)Cc1cc2c(N[C@@H]3CCC[C@H](NCc4ccc(-c5ccncc5)cc4)C3)ncnc2s1 [Example 40, (1S,3R)-N^1-{[4-(pyridin-4-yl)phenyl]methyl}-N^3-[6-(2,2,2-trifluoroethyl)thieno[2,3-d]pyrimidin-4-yl]cyclohexane-1,3-diamine hydrochloride] | 2.62 | 2.16 | 5.53 | 4.16 | 4.54 | 4.33
FC(F)(F)Cc1cc2c(N[C@@H]3CCC[C@H](NCc4ccc(Oc5ccccc5)cc4)C3)ncnc2s1 [Example 41, (1S,3R)-N^1-[(4-phenoxyphenyl)methyl]-N^3-[6-(2,2,2-trifluoroethyl)thieno[2,3-d]pyrimidin-4-yl]cyclohexane-1,3-diamine hydrochloride] | 2.46 | – | 2.67 | – | 2.54 | –
OCCN(c1ncnc2sc(CC(F)(F)F)cc12)[C@@H]1CC[C@H](NCc2ccc(-c3cccnc3)cc2)C1 [Example 42, 2-{[(1R,3S)-3-({[4-(pyridin-3-yl)phenyl]methyl}amino)cyclopentyl][6-(2,2,2-trifluoroethyl)thieno[2,3-d]pyrimidin-4-yl[amino}ethan-1-ol hydrochloride] | 1.43 | 1.14 | 5.09 | 2.87 | 3.11 | 1.96
CCN(c1ncnc2sc(CC(F)(F)F)cc12)[C@@H]1CC[C@H](NCc2ccc(-c3cccnc3)cc2)C1 [Example 43, (1R,3S)-N^1-ethyl-N^3-{[4-(pyridin-3-yl)phenyl]methyl}-N^1-[6-(2,2,2 trifluoroethyl)thieno[2,3-d]pyrimidin-4-yl]cyclopentane-1,3-diamine hydrochloride] | 1.18 | 0.877 | 3.02 | 1.72 | 2.41 | 1.74
COc1cncc(-c2ccc(CN[C@H]3CC[C@@H](N(C)c4ncnc5sc(C6CC6)cc45)C3)cc2)c1 [Example 45, (1R,3S)-N^1-(6-cyclopropylthieno[2,3-d]pyrimidin-4-yl)-N^3-{[4-(5-methoxypyridin-3-yl)phenyl]methyl}-N^1-methylcyclopentane-1,3-diamine hydrochloride] | 0.865 | 0.701 | 3.27 | 2 | 1.78 | 1.4
COc1cncc(-c2ccc(CN[C@H]3CC[C@@H](N(C)c4nc(C)nc5sc(CC(F)(F)F)cc45)C3)cn2)c1 [Example 46, (1R,3S)-N^3-[(5′-methoxy[2,3′-bipyridine]-5-yl)methyl]-N^1-methyl-N^1-[2-methyl-6-(2,2,2-trifluoroethyl)thieno[2,3-d]pyrimidin-4-yl]cyclopentane-1,3-diamine hydrochloride] | 0.49 | – | 6.42 | – | 2.69 | –
COCc1cc2c(N(C)[C@@H]3CC[C@H](NCc4ccc(-c5cncc(OC)c5)cc4)C3)ncnc2s1 [Example 47, (1R,3S)-N^1-[6-(methoxymethyl)thieno[2,3-d]pyrimidin-4-yl]-N^3-{[4-(5-methoxypyridin-3-yl)phenyl]methyl}-N^1-methylcyclopentane-1,3-diamine hydrochloride] | 0.704 | – | 6.2 | – | 2.22 | –
COc1cncc(-c2ccc(CN[C@H]3CC[C@@H](N(C)c4ncnc5sc(C6COC6)cc45)C3)cc2)c1 [Example 48, (1R,3S)-N^3-{[4-(5-methoxypyridin-3-yl)phenyl]methyl}-N^1-methyl-N^1-[6-(oxetan-3-yl)thieno[2,3-d]pyrixnidin-4-yl]cyclopentane-1,3-diamine hydrochloride] | 1.77 | – | 3.45 | – | 2.21 | –
CN(c1ncnc2sc(CC(F)(F)F)cc12)[C@@H]1CC[C@H](NCc2ccc(C(=O)NCc3cnn(C)c3)cc2)C1 [Example 49, N-[(1-methyl-1H-pyrazol-4-yl)methyl]-4-({[(1S,3R)-3-{methyl[6-(2,2,2-trifluoroethyl)thieno[2,3-d]pyrimidin-4-yl]amino}cyclopentyl]amino}methyl)benzamide hydrochloride] | 0.598 | 0.49 | 9.74 | 3.18 | 2.52 | 1.13
COc1cncc(-c2ccc(CN[C@@H]3C[C@H](N(C)c4ncnc5sc(CC(F)(F)F)cc45)C[C@H]3O)cc2)c1 [Example 50, (1R,2R,4S)-2-({[4-(5-methoxypyridin-3-yl)phenyl]methyl}amino)-4-{methyl[6-(2,2,2-trifluoroethyl)thieno[2,3-d]pyrimidin-4-yl]amino}cyclopentan-1-ol hydrochloride] | 0.2 | 0.0812 | 5.69 | 3.29 | 2.53 | 0.33
COc1cncc(-c2ccc(CN[C@@H]3C[C@H](N(C)c4ncnc5sc(CC(F)(F)F)cc45)C[C@@H]3O)cc2)c1 [Example 51, (1S,2R,4S)-2-({[4(5methoxypyridin-3-yl)phenyl]methyl}amino)-4-{methyl[6-(2,2,2-trilluoroethyl)thieno[2,3-d]pyrimidin-4-yl]amino}cyclopentan-1-ol hydrochloride] | 0.137 | 0.0621 | 3.2 | 2.06 | 1.24 | 0.259
COc1cncc(-c2ccc(CN[C@@H]3C[C@H](Nc4ncnc5sc(CC(F)(F)F)cc45)CC(F)(F)C3)cc2)c1 [Example 52, (1R,3S)-5,5-difluoro-N^1-{[4-(5-methoxypyridin-3-yl)phenyl]methyl}-N^3-[6-(2,2,2-trifluoroethyl)thieno[2,3-d]pyrimidin-4-yl]cyclohexane-l,3-diamine hydrochloride] | 2.39 | – | 5.93 | – | 3.37 | –
CN(c1ncnc2sc(CC(F)(F)F)cc12)[C@@H]1CC[C@H](NCc2ccc(S(=O)(=O)c3ccccc3)cc2)C1 [Example 53, (1R,3S)N^3-{[4-(benzenesulfonyl)phenyl]methyl}N^1-methyl-N^1-[6-(2,2,2-trifluoroethyl)thieno[2,3-d]pyrimidin-4-yl]cyclopentane-1,3-diamine hydrochloride] | – | 0.395 | – | 0.908 | – | 0.826
